Antibody variant affinities, Ab-14 heavy chain, assay 1

Binding partner: SARS-CoV-2 spike HR2 peptide, sequence PDVDLGDISGINAS.

Parent scFv Ab-14: VH joined to VL by the linker GGGGSGGGGSGGGGS. Changes lie in the heavy chain CDRs alone.
VH: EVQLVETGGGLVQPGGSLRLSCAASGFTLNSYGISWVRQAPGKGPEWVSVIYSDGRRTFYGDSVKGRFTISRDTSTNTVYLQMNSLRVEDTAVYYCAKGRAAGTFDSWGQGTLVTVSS
VL: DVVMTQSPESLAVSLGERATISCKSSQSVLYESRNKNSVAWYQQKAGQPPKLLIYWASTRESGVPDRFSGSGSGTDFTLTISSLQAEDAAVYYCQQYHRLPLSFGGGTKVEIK

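AAYL49 was designed without a model: most single CDR substitutions and a random sample of double and triple ones. In AlphaSeq, yeast of one mating type display the scFv and yeast of the other type display the target. The frequency of each diploid, read from paired DNA barcodes, reflects how well the two displayed proteins bind. Each replicate has its own calibration line, from reference interactions of the BCL2 family. The assay was run in three technical replicates.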

Positions count from residue 1 of the parent VH; V50I puts I in place of V.
Scale: log10 of Kd in nM, estimated from mating counts; low values are strong binders.
"ND" means that the variant was in the library but no mating with the target was seen in that replicate; the authors take this as a sign of poor binding, and no number exists.
In this assay the parent's reference entry averaged 0.65; its copy inside this library read 4.11 (one replicate of three).
Nonspecific signal, from three strains lacking the peptide, appeared in 15% of pairings of library AAYL49, centred on 4.06 (5% of these signals below 2.83); values are not corrected for it. Also given: how often the same scFv was detected with the empty control strains, with their mean in brackets.

changes	log10 Kd (nM) by replicate	signal with controls
V50I/S53H/G61L	1.82 1.67 1.51	0 of 9
S63L/A101N/S107I	1.62 1.42 1.47	2 of 9 (4.30)
T28L/I51T/A102Q	ND ND ND	0 of 9
S35R/R57E/G99W	4.35 ND 4.54	7 of 9 (4.54)
V64T/R100N/S107M	4.15 3.16 2.89	0 of 9
F27S/R57P/Y60P	ND 3.29 5.09	1 of 9 (5.48)
Y32P/D54H/Y60A	ND ND ND	0 of 9
F27Y/Y32A/I51T	ND 4.80 4.39	4 of 9 (3.98)
G33D/D54T/V64I	5.41 4.19 4.51	3 of 9 (4.42)
D62V	ND ND ND	0 of 9
S53P/R57T/Y60N	ND ND ND	2 of 9 (3.30)
F27M/G33S/G99H	ND ND ND	1 of 9 (2.98)
S53R/R57I/S107N	ND ND ND	1 of 9 (3.21)
Y32H/R57N/S107C	ND 3.04 3.97	0 of 9
N30R/S35D/Y52P	ND ND ND	0 of 9
S31W/D54H	ND 3.09 ND	0 of 9
Y60L/K65F/G103P	ND ND ND	0 of 9
S31R/D62W	2.59 2.75 3.95	1 of 9 (5.24)
Y60F/A102E/F105Q	1.81 2.27 2.05	5 of 9 (3.60)
I51M/Y60G/G103K	ND ND ND	2 of 9 (3.64)
N30K/I51L/S107V	4.45 ND 3.08	0 of 9
S31T/G33N	ND ND ND	1 of 9 (3.49)
L29Q/S35W/F105L	ND 4.49 ND	4 of 9 (4.43)
V50R/I51W/G103L	ND ND ND	0 of 9
Y52Q/D62V/G99K	3.94 ND ND	1 of 9 (3.71)
G26A/Y60A/S107G	ND ND ND	0 of 9
G26V/R57T/G103L	ND ND ND	1 of 9 (3.63)
L29E/Y52G/R56I	4.24 3.15 ND	3 of 9 (4.07)
L29E/R56I	ND ND ND	1 of 9 (3.00)
S31G/R57N/D106N	ND ND ND	0 of 9
N30C/I34T	ND ND ND	3 of 9 (3.70)
G26L/D54V/T104L	ND ND ND	0 of 9
T28A/I34N/Y52D	ND ND ND	4 of 9 (3.91)

The first 3 entries again:

changes	log10 Kd (nM) by replicate	signal with controls
V50I/S53H/G61L	1.82 1.67 1.51	0 of 9
S63L/A101N/S107I	1.62 1.42 1.47	2 of 9 (4.30)
T28L/I51T/A102Q	ND ND ND	0 of 9

Source: Engelhart et al. 2022 (doi:10.1038/s41597-022-01779-4), MIT Lincoln Laboratory and A-Alpha Bio; data file from the FLAb repository.